Values of other authors, collected in patent publication US20100022659A1, “Methods and Compositions for the Treatment of CNS-Related Conditions” (priority 2004, published 2010).

Settings: humans; MAO inhibitors/GAPDHais, Table 2; cited from earlier work

Question: For C#CCN(C)[C@H](C)Cc1ccccc1 [Deprenyl/Selegiline], which “Human PK” value is on record?
Answer: 1.5 to 8.6 h
